Measurements as given in patent US10800791B2, “Triazole ACC inhibitors and uses thereof” (Gilead Apollo, LLC, priority 2015, dated 2020).

Chains of the proteins cited; added tags and fusions are not shown.
UniProt Q00955, whole entry: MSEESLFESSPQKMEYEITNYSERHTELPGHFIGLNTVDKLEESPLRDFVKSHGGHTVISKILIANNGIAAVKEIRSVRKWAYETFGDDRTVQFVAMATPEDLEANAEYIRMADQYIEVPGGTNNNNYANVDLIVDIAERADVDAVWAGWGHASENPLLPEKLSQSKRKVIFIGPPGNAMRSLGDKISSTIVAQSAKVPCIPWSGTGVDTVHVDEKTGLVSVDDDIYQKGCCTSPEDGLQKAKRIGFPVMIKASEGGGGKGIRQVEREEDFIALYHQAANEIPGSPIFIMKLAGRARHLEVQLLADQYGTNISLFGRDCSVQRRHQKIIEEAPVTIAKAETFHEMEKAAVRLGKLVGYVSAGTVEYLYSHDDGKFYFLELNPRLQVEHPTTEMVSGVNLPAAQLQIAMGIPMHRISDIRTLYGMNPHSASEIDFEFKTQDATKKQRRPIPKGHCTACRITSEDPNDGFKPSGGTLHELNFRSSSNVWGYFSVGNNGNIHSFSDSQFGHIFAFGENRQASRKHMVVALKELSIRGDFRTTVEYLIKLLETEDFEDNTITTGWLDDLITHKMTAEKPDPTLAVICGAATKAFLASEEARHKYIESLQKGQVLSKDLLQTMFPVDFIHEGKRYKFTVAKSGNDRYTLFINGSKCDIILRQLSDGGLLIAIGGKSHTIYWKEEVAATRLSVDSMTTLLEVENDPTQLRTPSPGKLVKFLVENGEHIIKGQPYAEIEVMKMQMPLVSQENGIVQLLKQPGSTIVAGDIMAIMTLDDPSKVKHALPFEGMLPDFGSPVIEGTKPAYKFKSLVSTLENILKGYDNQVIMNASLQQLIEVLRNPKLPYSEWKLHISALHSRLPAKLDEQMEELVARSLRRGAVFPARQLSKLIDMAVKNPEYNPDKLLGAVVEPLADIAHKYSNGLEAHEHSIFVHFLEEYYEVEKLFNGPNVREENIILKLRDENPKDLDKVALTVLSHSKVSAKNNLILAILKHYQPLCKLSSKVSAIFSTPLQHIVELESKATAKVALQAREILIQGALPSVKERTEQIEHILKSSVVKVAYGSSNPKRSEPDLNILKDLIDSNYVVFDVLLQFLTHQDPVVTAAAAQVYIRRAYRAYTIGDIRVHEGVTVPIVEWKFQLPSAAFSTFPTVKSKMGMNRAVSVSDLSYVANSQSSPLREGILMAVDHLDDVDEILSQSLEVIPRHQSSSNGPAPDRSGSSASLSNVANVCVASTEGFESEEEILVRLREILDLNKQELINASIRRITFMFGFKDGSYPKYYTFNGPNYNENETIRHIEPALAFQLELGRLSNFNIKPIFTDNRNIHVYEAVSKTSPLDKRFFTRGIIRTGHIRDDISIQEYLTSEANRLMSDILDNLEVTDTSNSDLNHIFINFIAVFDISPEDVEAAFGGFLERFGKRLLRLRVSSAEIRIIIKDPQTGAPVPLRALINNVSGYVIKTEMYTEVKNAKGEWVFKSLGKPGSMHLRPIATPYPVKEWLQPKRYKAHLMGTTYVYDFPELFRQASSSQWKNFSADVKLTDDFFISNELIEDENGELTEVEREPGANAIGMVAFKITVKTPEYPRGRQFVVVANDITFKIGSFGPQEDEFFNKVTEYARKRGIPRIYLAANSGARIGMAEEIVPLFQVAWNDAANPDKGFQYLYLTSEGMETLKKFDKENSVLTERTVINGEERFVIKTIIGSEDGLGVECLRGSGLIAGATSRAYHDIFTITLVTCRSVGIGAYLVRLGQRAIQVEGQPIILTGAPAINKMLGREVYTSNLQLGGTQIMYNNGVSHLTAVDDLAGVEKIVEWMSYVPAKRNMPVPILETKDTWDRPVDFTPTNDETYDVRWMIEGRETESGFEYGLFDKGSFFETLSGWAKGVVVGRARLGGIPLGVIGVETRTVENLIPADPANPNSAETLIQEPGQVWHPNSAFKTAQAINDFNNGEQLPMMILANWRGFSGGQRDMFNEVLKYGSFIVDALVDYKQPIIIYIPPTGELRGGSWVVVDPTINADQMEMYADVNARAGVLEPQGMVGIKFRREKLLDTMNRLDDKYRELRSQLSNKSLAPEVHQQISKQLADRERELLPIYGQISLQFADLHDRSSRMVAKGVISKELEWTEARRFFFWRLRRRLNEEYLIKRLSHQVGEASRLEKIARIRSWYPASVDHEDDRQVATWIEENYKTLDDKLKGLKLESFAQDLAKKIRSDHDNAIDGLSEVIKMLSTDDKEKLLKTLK

Target: fungal (fACC2) (UniProt Q00955)
Conditions: read-out: fACC2 (in vitro ACC2 Inhibition Assay, IC50); Table 2b, additional results; ADP-Glo, 5 nM ACC2, 20 μM ATP, 20 μM acetyl-CoA

Question: Which IC50 does the source give for Cc1c(-n2nccn2)sc2c1c(=O)n(C(C)(C)C(=O)NC(C)C)c(=O)n2C[C@H](O)c1cc(F)ccc1OCC#N [Compound I-199] here?
Answer: 300 to 1000 pM
